For the assay, the target named is T1, mGlu5ΔS protein (heptahelical domain of the mGlu5 receptor) (Rattus norvegicus, UniProt P31424).
T1 construct: between residue P568, located 11 residues before the first transmembrane domain, and residue L864; signal peptide of the mGlu5 receptor (N); expressed in transfected cells; host or cells: HEK293
Kind of assay: IP production in HEK293 cells transiently expressing truncated mGlu5ΔS protein. The assay is classed as cell-based. The conditions noted are these: 100 μM glutamate (FIG. 3). The text has this:
The results correspond to the ratio of the production of IP to the radioactivity remaining in the membranes, and are expressed as percentage baseline production of IP.
The results correspond to the ratio of the production of IP to the radioactivity remaining in the membranes.
In the context of the invention, the measurement of the level of activity of the GPCR-III-A can be carried out by any conventional method known to those skilled in the art that is suitable for measuring the activity of a GPCR-III. Among these methods, mention may be made, by way of example, of measurement of the level of production of inositol phosphates (IPs; see Experimental Section, below; Berridge, 1983; Brandish et al., 2003), measurement of […] (Milligan, 2003), measurement of intracellular calcium signals using fluorescent markers such as Fluo3 or Fluo4, and measurement of cAMP production, the latter two methods being conventional and well known to those skilled in the art.
The portion of the cDNA of the mGlu5 receptor encoding its heptahelical domain between residue P568, located 11 residues before the first transmembrane domain, and residue L864, located 37 residues after the 7th transmembrane domain, was amplified by PCR (primers SEQ ID No.1 and SEQ ID No.2), including, respectively, the restriction sites of the Mlu-I and Xba-I enzymes at the 5′ and 3′ ends (FIG. 2). […]

Amino acid sequences for entries named in this document (tags omitted). Residues count along the entry.
UniProt P31424, 568-864, stated change not applied: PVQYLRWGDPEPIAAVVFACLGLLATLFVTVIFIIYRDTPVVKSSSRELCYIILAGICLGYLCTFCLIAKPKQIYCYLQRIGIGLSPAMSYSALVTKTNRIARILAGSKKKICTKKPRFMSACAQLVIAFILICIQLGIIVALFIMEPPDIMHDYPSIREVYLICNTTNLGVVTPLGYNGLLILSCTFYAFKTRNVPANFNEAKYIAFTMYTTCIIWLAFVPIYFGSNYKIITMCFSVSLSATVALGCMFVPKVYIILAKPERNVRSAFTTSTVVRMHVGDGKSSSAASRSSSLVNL

On to glutamate, for which the “effect of glutamate on IP production” value is “not in the cells expressing the mGlu5ΔS protein”.
